Hits are enriched below; roughly 16% of the tested compounds scored in any of these assays.
DT40 TDP1 CPT – DT40-hTDP1 cell growth loss with CPT; chicken DT40 Tdp1-/-;hTDP1 cells + 20 nM CPT, ATP luminescence, 48 h; hit rate 12% among 420,000; Potency, µM (top dose mostly 46.2 µM), most hits filed as inhibitors; note: nearly all actives have a fitted effect of over 55% in size
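Chicken DT40 Tdp1-/- cells complemented with human TDP1, 400 cells/well, exposed to compounds plus 20 nM camptothecin for at least 48 h at 37 C; viability read as ATP content by CellTiter-Glo luminescence.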
miR-21 FLuc – miR-21 reporter, rising signal; HeLa miR-21 FLuc reporter, luciferase, 48 h; Potency, µM (titrated, usually from 38.3 µM); AID 2288; 340,000 tested, under 10 active; active = well fitted rising curve with a large enough effect; inconclusive = small, poorly fitted or top-dose-only effect; inactive = no such curve, though single readings can be large or run the other way;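 further: miR-21 action dims this reporter so a rising signal means less miR-21 action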
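Using DMEM plus 10% FBS, HeLa miR-21-FLuc cells are incubated with test compounds (final up to about 40uM) for 48 hours; firefly luciferase signal is then imaged following reagent-mediated lysis.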
TDP1 cell noCPT – qHTS for Inhibitors of human tyrosyl-DNA phosphodiesterase 1 (TDP1): qHTS in cells in absence of CPT | DT40 Tdp1-/- hTDP1 cells, no CPT, ATP luminescence, 48 h | Potency, µM (series often up to 46.2 µM), most hits filed as inhibitors | hit rate 15% among 420,000 | AID 686978, 2013; note: nearly all actives have a fitted effect of over 55% in size
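Chicken DT40 Tdp1-/- cells complemented with human TDP1, screened without camptothecin (DMSO vehicle only), 400 cells/well. Compounds pin-transferred, cells incubated at 37 °C for at least 48 hr. Growth read as ATP-dependent luminescence (CellTiter-Glo, 30 min at RT).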
TDP1 inh – blocks human tyrosyl-DNA phosphodiesterase 1; recombinant TDP1, AlphaScreen DNA substrate cleavage; Potency, µM (doses to about 130 µM), usual class: inhibitors; hit rate 0.28% among 350,000; note: nearly all actives have a fitted effect of over 40% in size
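Enzyme-compound mixtures sat 15 min at room temperature, followed by a 5 min reaction with 15 nM final substrate and 10 min with AlphaScreen beads. Recombinant human Tdp1 was used at 1 nM final.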
uPA generation – inhibitors of cell surface uPA generation. cell surface uPA generation assay, qHTS. Potency, µM (highest dose often 38.3 µM), usual class: inhibitors. hit rate 0.31% among 330,000; active = well fitted inhibition curve with a large enough effect; inconclusive = small, poorly fitted or top-dose-only effect; inactive = no such curve, though single readings can be large or run the other way; tested in mouse RAW 264.7 cells; note: nearly all actives have a fitted effect of over 55% in size
A number is an active result; i = inactive; ? = inconclusive; nt = not tested or not shown. Unless noted, calls come from the whole dose curve; as a rule, active = well fitted curve in the direction sought with a large enough effect; inconclusive = small, poorly fitted or top-dose-only effect, or another doubt; inactive = no such curve, though single readings can be large; an effect the other way counts as inactive or inconclusive.

SMILES	DT40 TDP1 CPT	miR-21 FLuc	TDP1 cell noCPT	TDP1 inh	uPA generation
Cc1ccc(/C=N/NC(=O)c2cc(C)oc2C)cc1	23.1µM	i	16.4µM	i	i
COc1ccc(C=NNC(=O)c2cc(C)oc2C)cc1O	?	nt	16.4µM	i	i
CCCN1Cc2cccc(C(=O)Nc3ccc(OC)cc3OC)c2C1=O	?	i	23.1µM	i	nt
CCCN1Cc2cccc(C(=O)Nc3ccccc3C(=O)OC)c2C1=O	23.1µM	i	16.4µM	i	nt
Cc1coc2c(C)c3oc(=O)c(CCC(=O)N(C)CC(=O)O)c(C)c3cc12	i	i	i	nt	i
O=C(Nc1ccccc1)c1ccc(S(=O)(=O)N2CCC(C(=O)O)CC2)cc1	i	i	i	i	i
FC(F)(F)c1cc(CCN2CCNC[C@@H]2Cc2ccccc2)cc(C(F)(F)F)c1	20.6µM	nt	?	nt	i
Cc1ccc(-n2ncc(Br)c(Br)c2=O)cc1	4.11µM	?	3.66µM	i	12.6µM
O=c1c(Br)c(Br)cnn1-c1ccccc1	4.11µM	?	3.66µM	i	i
COc1cnn(-c2ccc(F)cc2)c(=O)c1Br	i	i	i	i	i
CCOC(=O)C(C)On1c(SC(C)C(=O)OCC)nc2ccccc2c1=O (stereo not given)	i	i	i	i	i
CC(=O)N(Cc1ccc(F)cc1)c1cccc(C)c1C	?	i	20.6µM	i	i
Cc1ccc(C(=O)N/N=C\c2ccc(-c3ccc([N+](=O)[O-])cc3)o2)cn1	i	i	?	i	i
O=C(N/N=C/c1ccc(-c2cccc(C(F)(F)F)c2)o1)c1ccccc1O	10.3µM	i	8.2µM	i	i
O=C(N/N=C/c1ccc(-c2cccc([N+](=O)[O-])c2)o1)c1ccccc1O	?	i	?	i	i
COc1cc(C(=O)NCC(=O)N/N=C/c2ccc(-c3ccc([N+](=O)[O-])cc3)o2)cc(OC)c1OC	?	i	20.6µM	i	i
O=C(N/N=C/c1ccc(-c2cccc(C(F)(F)F)c2)o1)c1cccc(F)c1	17.8µM	i	14.1µM	i	nt
O=C(N/N=C/c1ccc(-c2cccc([N+](=O)[O-])c2)o1)c1ccc([N+](=O)[O-])cc1	?	i	16.4µM	i	i
FC(F)(F)c1cccc(-c2ccc(/C=N/Nc3nncc(-c4ccccc4)n3)o2)c1	?	i	9.2µM	i	i
COc1ccc(NN=Nc2nc3c([nH]2)c(=O)n(C)c(=O)n3C)cc1	20.6µM	i	?	i	i
COc1cccc2c1C(=O)/C(=C\c1ccc(N(C)C)cc1)C2	?	nt	11.2µM	nt	nt
COc1ccccc1/C=C1\Cc2ccccc2C1=O	?	i	?	i	i
Cc1ccc(Cn2c(C(=O)O)c(CNC3CCCCCC3)c3ccc(C)cc32)cc1	i	i	i	i	nt
Cc1ccc(C)[n+](CC(=O)c2ccc(-c3ccccc3)cc2)c1	2.59µM	i	1.84µM	i	i
Brc1cc2ccccc2[n+](Cc2ccccc2)c1	?	nt	11.6µM	i	?
SMILES	DT40 TDP1 CPT	miR-21 FLuc	TDP1 cell noCPT	TDP1 inh	uPA generation
O=C(C[n+]1cc(Br)cc2ccccc21)c1ccc(Br)cc1	?	i	?	nt	i
O=C(C[n+]1cc(Br)cc2ccccc21)c1ccc(Cl)cc1	?	i	18.4µM	nt	i
Cc1ccc[n+](CC(=O)c2ccc(-c3ccccc3)cc2)c1	i	i	i	i	i
Cc1cc2ccccc2c[n+]1CC(=O)c1ccc(F)cc1	?	nt	12.6µM	nt	nt
CC(=O)c1ccc[n+](CC(=O)c2ccc(F)cc2)c1	i	nt	i	nt	nt
Cc1nc2c(-c3ccccc3)cnn2c(N2CCOCC2)c1C	i	i	i	nt	i
Cc1cccc(C(=O)N[C@H](C(=O)OCc2cc(=O)n3c(n2)sc2ccccc23)C(C)C)c1	?	i	?	nt	i
O=C(C[n+]1cccc2ccccc21)c1ccc(Br)cc1	?	i	?	nt	i
CC(=O)C[n+]1cccc2cc(Cl)ccc21	i	nt	i	nt	nt
Cc1ccc(C(=O)C[n+]2cccc3ccccc32)cc1	?	i	18.4µM	i	i
O=C(C[n+]1ccccc1Cl)c1ccc(I)cc1	i	nt	?	nt	nt
O=C(C[n+]1cccc2cc(Cl)ccc21)c1ccc(I)cc1	11.2µM	nt	11.2µM	nt	nt
O=C(C[n+]1cccc2cc(Cl)ccc21)c1ccc2ccccc2c1	5.01µM	nt	3.98µM	nt	nt
COc1ccc(C(=O)C[n+]2cccc3cc(Cl)ccc32)cc1	?	nt	15.8µM	nt	nt
Cc1cc(F)ccc1N1CCC(N2CCN(CCC(C)C)C(CCO)C2)CC1 (stereo not given)	?	i	23.1µM	i	i
COc1cccc(CN2CCN(C3CCN(c4ccccc4F)CC3)CC2CCO)c1 (stereo not given)	?	i	?	i	i
CC(C)CCN1CCN(C2CCN(c3ccc4c(c3)OCO4)CC2)CC1CCO (stereo not given)	i	i	i	nt	i
CC(C)N1CCN(Cc2cc(F)ccc2-n2cccn2)CC1CCO (stereo not given)	i	i	i	i	i
Cc1cc(F)ccc1N1CCC(N2CCN(C(C)C)C(CCO)C2)CC1 (stereo not given)	?	i	23.1µM	nt	i
COc1cccc(CN2CCN(C3CCN(c4ccccc4C)CC3)CC2CCO)c1 (stereo not given)	?	i	18.4µM	i	i
COCCn1c(C)cc(C(=O)CSc2nnc3ccccn23)c1C	i	?	i	i	i
COCCn1c(C)cc(C(=O)CSc2nc3ccccc3o2)c1C	25.9µM	i	?	i	i
COCCn1c(C)cc(C(=O)CSc2nc3ccccc3s2)c1C	13µM	i	18.4µM	i	i
COCCn1c(SCC(=O)c2cc(C)n(C)c2C)nc2ccccc2c1=O	?	i	13µM	i	i
COc1ccc(N2CCN(C(CNC(=O)c3ccco3)c3ccco3)CC2)cc1 (stereo not given)	i	nt	i	nt	i
SMILES	DT40 TDP1 CPT	miR-21 FLuc	TDP1 cell noCPT	TDP1 inh	uPA generation
O=C(CSc1nccn(-c2cccc(F)c2)c1=O)Nc1ccc(Cl)cc1F	i	i	i	i	i
O=C(O)c1ccc(NS(=O)(=O)c2cccc(C(=O)Nc3ccccc3[N+](=O)[O-])c2)cc1	i	i	i	nt	i
O=C1/C(=C/c2ccccc2)CCc2ccc(Cl)nc21	2.59µM	nt	4.61µM	nt	i
COC(=O)c1ccccc1CCC(C)=O	?	i	16.4µM	i	i
O=C(O)c1cccc(-c2ccc(/C=N/n3cnc4sc5c(c4c3=O)CCCC5)o2)c1	nt	i	nt	17.8µM	nt
CS(=O)(=O)c1ccc(Sc2nc3ccccc3[nH]2)c([N+](=O)[O-])c1	?	i	?	i	i
O=[N+]([O-])c1cc(S(=O)(=O)C(F)(F)F)ccc1Sc1nc2ccccc2[nH]1	7.31µM	?	7.31µM	i	i
O=[N+]([O-])c1ccc(N2CCNCC2)cc1Sc1nc2ccccc2[nH]1	?	i	23.1µM	i	i
NCCNc1ccc([N+](=O)[O-])c(Sc2nc3ccccc3[nH]2)c1	?	i	16.4µM	i	i
NCCNc1ccc([N+](=O)[O-])c(NC2CC2)c1	?	i	?	i	i
